# Ab-14 light chain CDR variants: yeast mating affinities

Target: peptide PDVDLGDISGINAS, taken from heptad repeat 2 (HR2) of SARS-CoV-2 spike.

The variants keep the heavy chain, the linker and the frameworks of Ab-14 (scFv order VH, a 15-residue (Gly4Ser)3 linker, VL).
VH: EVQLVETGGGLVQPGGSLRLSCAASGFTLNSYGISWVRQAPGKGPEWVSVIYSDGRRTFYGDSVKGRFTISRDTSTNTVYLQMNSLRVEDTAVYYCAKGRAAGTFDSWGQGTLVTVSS
VL: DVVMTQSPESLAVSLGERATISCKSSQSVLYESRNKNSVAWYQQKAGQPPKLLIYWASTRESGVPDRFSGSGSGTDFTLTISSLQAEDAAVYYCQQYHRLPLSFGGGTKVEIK

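The starting antibody came from a phage panning campaign against this peptide. These sequences belong to a second round, designed from the earlier measurements on random variants of the parent. Group labels follow the data file (Ctrl: baseline library sampled from a position-specific scoring matrix, with some repeated check sequences; En: ensemble of fine-tuned language models; GP: Gaussian process model; HC: hill climbing; Gen: genetic algorithm; Gibbs: Gibbs sampling; a sequence that several methods proposed may carry one label only). Affinity was read by AlphaSeq, a pooled yeast mating assay with surface-displayed partners. Mating (16 h, 30 °C) was followed by selection of diploids and sequencing of their barcodes. Each replicate has its own calibration line, from reference interactions of the BCL2 family. There are six technical replicates.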

Each variant is given by its three light chain CDRs, as the data file delimits them; those of the parent are KSSQSVLYESRNKNSVA, WASTRES, QQYHRLPLS. Values are log10 of the apparent Kd in nM; lower means stronger binding. "nd" marks a missing value. The strain was present, yet no cells mated with the target were sequenced in that replicate, which points to weak or no binding.

CDR-L1	CDR-L2	CDR-L3	group	replicates, log10 nM
HSYQSGLYESRNQNSVA	SASMRSS	QQYHRLPLS	GP_Gibbs	0.56 0.59 0.50 0.44 0.84 0.85
MISQLYNMGQFAINSVA	QASLRNE	QQYDRLPLA	En_Gen	1.52 1.87 1.45 1.58 1.54 1.24
KSSQNVLYESRAKNSVA	MASTRES	QQYHRLPLS	Ctrl	1.48 1.87 2.41 1.11 1.62 2.83
KSSESVLYESRNKNSVA	NASTRES	QQYHRLPLS	Ctrl	1.12 0.40 0.90 0.96 1.11 0.42
KSSISEDYEDRNQNSVA	SASQREH	QQYHRLPLS	GP_Gibbs	0.86 0.79 0.95 0.69 0.61 0.81
KSSPVVLYESANKNSVA	NASTRMS	QQYHRLPLS	GP_HC	0.32 0.18 0.10 -0.06 0.04 0.24
KIGATLNMMSHKKNNVA	DLVTREN	QQYHRLPLS	En_Gen	1.64 0.52 0.79 0.56 0.61 0.64
KISQMFNVGTKNTNSLA	EMNTRGS	QDYHRLPLS	En_HC	0.59 0.37 0.41 0.24 0.17 0.43
KSSISYLGELRNKNSVA	EASTRES	QQYHRLPLS	GP_HC	-0.12 0.54 0.72 0.49 -0.03 0.48
TISDLMHSESRNVNNVA	DLVKREK	QQYHRLPLS	En_HC	0.52 0.63 -0.02 0.23 0.13 0.71
KLQSLWLYESRNKNSVA	NASTRYS	QQYHRLPLS	GP_Gibbs	0.08 0.07 0.39 0.00 0.15 0.37
KASQEVLYESRNKNSVA	WASTRES	QAYHRLPES	Ctrl	nd nd nd nd nd nd
KRSQSVLYESRNKNSVA	WASTRES	QQYHRLPIS	Ctrl	1.51 nd nd nd nd nd
KFSQSQLYESRMKNSVA	NASTRES	QQYHRLPLS	GP_Gen	0.39 0.17 0.02 -0.07 0.00 0.13
KSSQSELYESSNKNSMA	WASTRED	QQYHRLPLS	Ctrl	nd 1.23 1.97 2.25 nd nd
TISQSANMESHNKNSVA	DLNLRGS	QQYDRLPLS	En_HC	0.45 0.13 0.17 0.32 0.43 0.27
KLGDMVHTLSRNNNSIA	DMRTRES	QQYYRLPLS	En_HC	0.88 1.56 1.29 0.93 1.12 1.35
KLSQSDGYQSRNKNSVA	HASQRED	QQYHRLPLS	GP_Gibbs	1.23 0.92 0.55 0.35 0.66 0.99

Continued, with the values leading:

replicates, log10 nM	CDR-L1	CDR-L2	CDR-L3	group
0.42 0.32 -0.01 0.43 0.64 0.68	KIGMTLNQMMHKKNNVA	DLVMREN	QQYHRLPLS	En_Gen
1.06 0.77 0.32 0.64 0.69 0.61	MLSDLVKMGSRNTNSVA	DNSMRGS	QQYDRLPLS	En_HC
1.91 1.91 2.10 1.88 3.24 2.25	MISQMYNMGQFAINSVA	QASQRNE	QQYDRLPLI	En_Gen
1.20 1.20 0.85 1.19 1.25 1.06	KVEQGVDDLSRNDNSVA	WASTRES	QQYHRLPLS	GP_Gibbs
-0.39 -0.44 -0.50 -0.54 -0.42 -0.15	KLPQSFLYESRNKNSVA	NASTRES	QQYHRLPLS	GP_Gen
-0.28 0.55 -0.30 -0.16 0.29 -0.08	ILSQSELYESRNKNSVA	NASTRES	QQYHRLPLS	GP_Gen
1.25 1.40 nd 1.90 1.26 0.97	KLRQSTLYESRNCNSVA	QASTRES	QQYHRLPLS	GP_HC
-0.30 -0.29 -0.19 -0.37 -0.56 -0.40	KLRQQTLYETRNKNSVA	NASTREE	QQYHRLPLS	GP_HC
2.06 nd 1.11 1.95 1.10 1.21	HVSSMDMTDGGIIKSVA	GDKETER	QQYMRLPLS	En_Gibbs
0.88 0.51 0.51 0.30 0.69 0.48	MISQLYNMGSFAINSVA	QASMRNN	QQYDRLPLM	En_Gen
1.70 2.22 1.72 1.39 1.52 1.64	TLTQVTMVESYEKNSVA	QASTRLE	QDYHRLPLS	En_HC
0.52 0.44 0.41 0.28 0.39 0.51	KSSKSVLYESRNKNSVA	EASTRES	QQYHRLPLS	Ctrl
-0.02 -0.02 0.49 -0.54 0.20 -0.24	NLSAMTAHESVKSKNVA	ERSTREE	QQYNRLPLS	En_Gen
1.61 1.10 1.25 0.77 1.39 1.65	KLDMNELGQSQNSNCVA	GSAQKCS	QQYSRLPLS	En_Gibbs
0.40 0.34 0.34 0.33 0.14 0.21	KSSQSVLYESRNKNSVA	EASTRIS	QQYHRLPLS	Ctrl
0.07 -0.10 0.06 -0.05 -0.22 0.16	KISQSLLYESRNKNNVA	WASTRES	QQYHRMPLS	Ctrl
0.52 0.41 0.49 0.60 0.39 0.45	KSSQSVLYEWRNKNSVA	DASTRES	QQYHRMPLS	Ctrl
nd 2.77 nd 2.26 nd 3.61	KISQSVLYESRNKNSVA	WAQTRQS	QCYHRLPLS	Ctrl

The opening 6 entries, copied out:

CDR-L1	CDR-L2	CDR-L3	group	replicates, log10 nM
HSYQSGLYESRNQNSVA	SASMRSS	QQYHRLPLS	GP_Gibbs	0.56 0.59 0.50 0.44 0.84 0.85
MISQLYNMGQFAINSVA	QASLRNE	QQYDRLPLA	En_Gen	1.52 1.87 1.45 1.58 1.54 1.24
KSSQNVLYESRAKNSVA	MASTRES	QQYHRLPLS	Ctrl	1.48 1.87 2.41 1.11 1.62 2.83
KSSESVLYESRNKNSVA	NASTRES	QQYHRLPLS	Ctrl	1.12 0.40 0.90 0.96 1.11 0.42
KSSISEDYEDRNQNSVA	SASQREH	QQYHRLPLS	GP_Gibbs	0.86 0.79 0.95 0.69 0.61 0.81
KSSPVVLYESANKNSVA	NASTRMS	QQYHRLPLS	GP_HC	0.32 0.18 0.10 -0.06 0.04 0.24

A sequence measured in both rounds can read differently, since the two assays cover different ranges. Empty control strains, which show no peptide, gave a signal in 4% of pairings with all light chain designs; the median was 2.64 and 95% of these signals were weaker than 1.59. No background was subtracted. The parent sequence was in this pool as ten entries: three were never detected, three once, and four in most replicates, with averages from 0.34 to 2.37. The authors' rule: three or more of the six replicates give a measured affinity, fewer mean a poor binder.

The measurements come from Li et al. 2023 (doi:10.1038/s41467-023-39022-2) through the FLAb antibody collection.